Measurements: patent US12564641B2, “Eribulin antibody-drug conjugates and methods of use” (EISAI R&D MANAGEMENT CO., LTD., priority 2019, dated 2026)

Assays:
A431 cells = assay: In vitro cytotoxicity analysis (Crystal Violet), A431; conditions: Homo sapiens
Description: (§1) Plates were read at 570 nm. Data was analyzed using GraphPad Prism 6.
(§2) All ADCs were purified and characterized using SEC-HPLC for aggregation analysis, HIC-HPLC for DAR analysis, and cell-based assay with A431-A3 (MSLN^hi), A431 (MSLN^lo), and OVCAR3 (MSLN^hi) cell lines.

OVCAR3 cells = assay: In vitro cytotoxicity analysis (Crystal Violet), OVCAR3; conditions: Homo sapiens
Description: as §1, §2

C=C1C[C@@H]2CC[C@@]34C[C@H]5O[C@H]6[C@@H](O3)[C@H]3O[C@H](CC[C@@H]3O[C@H]6[C@H]5O4)CC(=O)C[C@@H]3[C@@H](OC)[C@@H](C[C@H](O)CN)O[C@H]3C[C@H]3O[C@@H](CC[C@@H]1O2)C[C@@H](C)C3=C [Eribulin, eribulin]
EC50 (A431 cells; A-431, 120 h, read-out: Cell-Based Cytotoxicity Assay, EC50 (nM) A431): 0.47 nM | EC50 (A431 cells; A-431, read-out: Cell-Based Cytotoxicity Assay EC50 (nM) A431): 0.47 nM | EC50 (OVCAR3 cells; OVCAR-3, 120 h, read-out: Cell-Based Cytotoxicity Assay, EC50 (nM) OVCAR3): 0.11 nM | EC50 (OVCAR3 cells; OVCAR-3, read-out: Cell-Based Cytotoxicity Assay EC50 (nM) OVCAR3): 0.11 nM

Read-outs that look alike come from different tables or passages of the source.
